Where two headings read alike, the source gives them in different places.
How the values were obtained:
human Nav1.7 [1] = target: T1, human Nav1.7 (Homo sapiens, UniProt Q15858, W1161R); assay type: cell-based
human Nav1.7 [2] = target: T1, human Nav1.7; assay type: cell-based; details: read-out: hNav1.7 QPatch IC50

The chains behind the UniProt entries cited, without tags or fusion partners. Residues count along the entry.
UniProt Q15858, 1-1977 isoform Q15858-3 W1150R: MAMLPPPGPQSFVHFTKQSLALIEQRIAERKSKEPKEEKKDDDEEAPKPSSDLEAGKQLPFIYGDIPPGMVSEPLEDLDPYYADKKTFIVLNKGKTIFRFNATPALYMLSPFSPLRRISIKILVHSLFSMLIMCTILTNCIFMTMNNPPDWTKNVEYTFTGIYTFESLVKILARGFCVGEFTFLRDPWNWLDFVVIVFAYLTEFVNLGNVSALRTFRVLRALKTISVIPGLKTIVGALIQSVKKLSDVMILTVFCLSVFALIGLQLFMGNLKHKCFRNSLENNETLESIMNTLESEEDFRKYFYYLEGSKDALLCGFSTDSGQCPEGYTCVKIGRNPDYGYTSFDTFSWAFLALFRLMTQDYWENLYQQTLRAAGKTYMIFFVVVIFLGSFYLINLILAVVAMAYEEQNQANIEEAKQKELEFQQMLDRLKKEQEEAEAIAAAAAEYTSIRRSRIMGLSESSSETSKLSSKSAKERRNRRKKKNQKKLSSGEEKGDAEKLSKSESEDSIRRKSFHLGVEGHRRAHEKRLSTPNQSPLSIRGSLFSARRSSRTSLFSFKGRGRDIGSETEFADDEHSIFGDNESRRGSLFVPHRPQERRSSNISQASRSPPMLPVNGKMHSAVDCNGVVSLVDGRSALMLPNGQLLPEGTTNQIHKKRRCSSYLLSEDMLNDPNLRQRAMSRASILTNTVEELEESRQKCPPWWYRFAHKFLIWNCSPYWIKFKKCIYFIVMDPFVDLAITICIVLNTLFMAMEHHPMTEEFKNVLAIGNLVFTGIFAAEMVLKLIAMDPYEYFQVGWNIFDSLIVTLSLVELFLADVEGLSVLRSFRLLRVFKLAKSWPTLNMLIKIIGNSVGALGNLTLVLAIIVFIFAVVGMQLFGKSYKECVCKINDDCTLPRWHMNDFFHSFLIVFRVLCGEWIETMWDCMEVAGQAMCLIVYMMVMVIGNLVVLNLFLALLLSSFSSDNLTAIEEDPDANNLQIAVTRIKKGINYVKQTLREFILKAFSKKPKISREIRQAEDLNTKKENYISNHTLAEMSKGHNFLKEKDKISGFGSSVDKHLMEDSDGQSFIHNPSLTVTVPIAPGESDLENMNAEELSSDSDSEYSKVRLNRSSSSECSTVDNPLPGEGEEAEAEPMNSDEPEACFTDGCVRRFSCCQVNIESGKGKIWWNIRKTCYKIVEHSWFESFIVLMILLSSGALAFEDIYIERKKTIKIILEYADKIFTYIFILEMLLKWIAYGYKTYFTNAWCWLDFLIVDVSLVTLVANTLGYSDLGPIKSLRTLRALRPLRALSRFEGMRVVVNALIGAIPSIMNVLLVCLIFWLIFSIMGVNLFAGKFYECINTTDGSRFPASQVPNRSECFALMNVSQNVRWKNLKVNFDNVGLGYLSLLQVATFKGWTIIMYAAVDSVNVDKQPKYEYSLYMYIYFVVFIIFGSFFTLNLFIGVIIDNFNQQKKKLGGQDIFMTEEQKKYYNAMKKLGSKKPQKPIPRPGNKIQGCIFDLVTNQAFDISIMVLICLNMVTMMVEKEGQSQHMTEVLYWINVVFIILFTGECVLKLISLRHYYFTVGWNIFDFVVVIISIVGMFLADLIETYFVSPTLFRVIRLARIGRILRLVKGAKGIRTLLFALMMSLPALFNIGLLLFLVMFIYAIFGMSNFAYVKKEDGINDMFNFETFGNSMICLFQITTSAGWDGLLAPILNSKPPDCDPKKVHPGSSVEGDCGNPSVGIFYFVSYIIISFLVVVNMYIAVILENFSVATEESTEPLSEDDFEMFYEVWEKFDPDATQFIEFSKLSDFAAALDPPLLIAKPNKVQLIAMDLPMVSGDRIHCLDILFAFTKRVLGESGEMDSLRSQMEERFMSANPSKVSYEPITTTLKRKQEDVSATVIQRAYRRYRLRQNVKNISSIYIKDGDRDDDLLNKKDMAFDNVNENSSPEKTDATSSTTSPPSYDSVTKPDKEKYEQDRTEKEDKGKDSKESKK

Row | Substance | IC50 (human Nav1.7 [1]; read-out: Nav1.7 IC50) | IC50 (human Nav1.7 [1]; read-out: hNav1.7 TETRA IC50) | IC50 (human Nav1.7 [2])
1 | GPQCQKWMQTCDRERKCCEGFVCTLWCRKTLW-COOH [NV1D3409] | 79.1 nM |  | 
2 | GPYCQKWMWTCDSERKCCEGMVCRLWCKKKLW-COOH [NV1D12, reference compound] |  | 4.1 ± 3.6 nM | 2.2 ± 1.3 nM
3 | GPRCQKWMWTCDSERKCCEGFVCRLWCKKKLW-COOH [NV1D2662] | 4.03 nM | 4 ± 0.4 nM | 
4 | GPQCQKWMWTCDAERKCCEGMVCRLWCKKKLW-COOH [NV1D2675] | 4.33 nM | 4.3 ± 0.3 nM | 
5 | GPSCQKWMWTCDAERKCCEGFVCRLWCKKKLW-COOH [NV1D2738] |  | 2.6 ± 0.2 nM | 
6 | GPSCQKWMWTCDSERKCCEGFVCRLWCKKKLW-COOH [NV1D2663] | 4.19 nM | 4.2 ± 0.4 nM | 
7 | GPACQKWMWTCDAERKCCEGMVCRLWCKKKLW-COOH [NV1D2674] | 4.03 nM | 4 ± 0.2 nM | 
8 | GPQCQDWMQTCDRERKCCKGFVCTLWCRKKLW-COOH [NV1D3430] | 93.9 nM |  | 
9 | GPQCQKWMQTCDRERKCCERFVCTLWCRKKLW-COOH [NV1D3390] | 108 nM |  | 
10 | GPQCQKWMWTCDAERKCCEGFVCRLWCKKKLW-COOH [NV1D2740] | 3.62 nM | 3.6 ± 9.9 nM | 
11 | GPRCQKWMQTCDSERKCCEGFVCRLWCKKKLW-COOH [NV1D2733] | 7.54 nM | 7.5 ± 2.9 nM | 
12 | GPSCQKWMWTCDAERKCCEGMVCRLWCKKKLW-COOH [NV1D2673] | 4.31 nM | 4.3 ± 0.5 nM | 

— patent publication US20170334959A1 (priority 2015, published 2017)
